Data: patent publication US10221178B2, “Purine inhibitors of human phosphatidylinositol 3-kinase delta” (MERCK SHARP & DOHME CORP., priority 2015, dated 2019)

Sequences of proteins named here, by UniProt entry; tags and fusion partners are left off. A change or cut given only in a name is not applied to a line headed by its entry.
UniProt O00329: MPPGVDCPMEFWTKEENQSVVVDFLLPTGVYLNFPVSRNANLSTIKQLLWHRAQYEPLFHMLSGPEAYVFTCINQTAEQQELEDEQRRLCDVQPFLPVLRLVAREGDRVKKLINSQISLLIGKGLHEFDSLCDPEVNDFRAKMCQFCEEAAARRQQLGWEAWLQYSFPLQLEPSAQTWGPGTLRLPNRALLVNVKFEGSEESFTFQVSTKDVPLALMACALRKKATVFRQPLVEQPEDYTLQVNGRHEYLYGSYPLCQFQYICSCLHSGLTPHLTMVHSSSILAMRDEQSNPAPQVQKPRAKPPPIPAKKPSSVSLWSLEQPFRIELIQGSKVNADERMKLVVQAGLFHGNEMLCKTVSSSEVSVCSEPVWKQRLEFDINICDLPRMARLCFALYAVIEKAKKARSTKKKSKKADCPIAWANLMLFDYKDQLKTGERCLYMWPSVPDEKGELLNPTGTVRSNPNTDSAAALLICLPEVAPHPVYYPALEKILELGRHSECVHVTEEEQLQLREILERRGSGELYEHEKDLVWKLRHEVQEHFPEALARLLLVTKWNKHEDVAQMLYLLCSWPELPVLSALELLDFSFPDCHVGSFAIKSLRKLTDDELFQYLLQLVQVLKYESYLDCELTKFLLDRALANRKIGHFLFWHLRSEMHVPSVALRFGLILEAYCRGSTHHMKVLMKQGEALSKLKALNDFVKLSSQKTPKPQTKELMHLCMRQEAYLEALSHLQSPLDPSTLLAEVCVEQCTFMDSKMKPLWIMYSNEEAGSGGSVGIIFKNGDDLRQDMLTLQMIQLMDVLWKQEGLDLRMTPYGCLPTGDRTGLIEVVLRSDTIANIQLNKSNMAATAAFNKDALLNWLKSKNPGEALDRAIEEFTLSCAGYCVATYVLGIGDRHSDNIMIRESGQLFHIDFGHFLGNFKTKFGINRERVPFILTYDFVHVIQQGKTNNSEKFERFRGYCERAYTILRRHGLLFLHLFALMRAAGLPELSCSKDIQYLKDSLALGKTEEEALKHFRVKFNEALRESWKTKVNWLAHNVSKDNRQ

What follows are molecules tested against PI3Kdelta (Homo sapiens (Human), UniProt O00329) (assay: HTRF PI3K biochemical assay, delta isoform). Conditions: 0.3 nM enzyme, 100 uM ATP, 5 uM PIP2, form screened: Neutral.
Text: HTRF PI3K Biochemical Assay to Measure Intrinsic Potency of Compound Inhibitors
The PI3-Kinase biochemical assays were developed to measure the intrinsic potency and compound dependent inhibition of the alpha, beta, delta, and gamma PI3K isoform enzymes.
This assay was developed and further optimized from a kit produced by Upstate (Millipore catalog #33-047) and has been configured for HTS (high throughput screening) and SAR screening. Briefly, this procedure exploits the exquisite specificity and high affinity binding of enzyme reaction substrate phosphatidyl(3,4,5)triphosphate (PIP3) to the GRP1 pleckstrin homology (PH) domain to generate the signal. In the absence of PIP3, an HTRF (Homogeneous Time-Resolved Fluorescence energy transfer) complex is formed consisting of europium (Eu)-labeled anti-GST, GSTtagged GRP1-PH domain, biotin-PIP3 and streptavidin conjugated APC. The native PIP3 produced by PI3-Kinase activity disrupts in a competitive manner the biotin-PIP3 from the PH domain, resulting in the loss of energy transfer (HTRF complex) and a decrease in the signal. The format of this assay is the same for all 4 isoforms of PI3K; the differences lie in the concentration of enzyme used to achieve robust assay window. The alpha, beta, and delta assays are run at 0.5, 1, and 0.3 nM enzymes and the gamma assay is run at 5 nM enzyme. The ATP concentration is 100 uM in the alpha, beta, and delta assays and 50 uM ATP in the gamma assay. All reactions are run at 5 uM PIP2.
Compounds are serially diluted (3-fold in 100% DMSO) across a 384-well polypropylene source plated from column 3 to column 12 and column 13 to column 22, to yield 10 concentration dose response for each test compound. Columns 1, 2, 23 and 24 contain either only DMSO or pharmacological known control inhibitor. Once titrations are made, 2.5 nL of the compounds on 384 well plates are reformatted and transferred by acoustic dispense in quadruplicates to a 1536 assay plate (Greiner) to assay across all four PI3K isoform enzymes.
The PI3-Kinase biochemical assay was optimized using the HTRF kit provided by Upstate (Millipore). The assay kit contains six reagents: 1) 4× Reaction Buffer; 2) native PIP2 (substrate); 3) Stop (EDTA); 4) Detection Mix A (Streptavidin-APC); 5) Detection Mix B (Eu-labeled Anti-GST plus GST-tagged PH-domain); 6) Detection Mix C. In addition, the following items were obtained or purchased; PI3Kinase (alpha 14-602, beta 14-603, gamma 14-558 and delta 14-604 from Upstate; Millipore), dithiothreitol (Sigma, D-5545), Adenosine-5′ triphosphate (InVitrogen, Cat#AS001A), native PIP3 (PI(3,4,5)P3, diC8, H^+, CELLSIGNALS, INC. Cat #907) DMSO (Sigma, 472301).
PI3Kinase Reaction Buffer is prepared by dilution the stock 1:4 with de-ionized water. DTT, PIP2 and Biotin-PIP3 were added to 1536 assay plate at a final concentration of 5 mM, […] on the day of use. Enzyme addition and compound pre-incubation are initiated by the addition of 1.25 ul of PI3K (at twice its final concentration) in the 1× reaction buffer to all wells using a BioRaptor. Plates are incubated at RT for 15 minutes. Reactions are initiated by addition of 1.25 ul of 2× substrate solution (PIP2 and ATP in 1× reaction buffer) using BioRaptor. Plates are incubated in humidified chamber at RT for one hour. Reactions are quenched by addition of 0.625 uL of stop solution to all wells using the BioRaptor. The quenched reactions are then processed to detect product formation by adding 0.625 uL of Detection Solution to all wells using the BioRaptor (Detection mix C, Detection Mix A, and Detection Mix B combined together in an 18:1:1 ratio prepared 2 hours prior to use). Following a one hour incubation in the dark, the HTRF signal is measured on the Envision plate reader set for 330 nm excitation and dual emission detection at […]. […]

SMILES	IC50 [µM]
CCC(Nc1ncnc2c1nc(-c1cnn(CC)c1C)n2C)C(=O)N1CCC1 (racemic) [Compound 1-3, (R and S)-N-[1-(azetidin-1-ylcarbonyl)propyl]-8-(1-ethyl-5-methyl-1H-pyrazol-4-yl)-9-methyl-9H-purin-6-amine]	0.026
CC[C@H](Nc1ncnc2c1nc(-c1cnc(C)nc1)n2CC)C(=O)N1CCC(OC)C1 (mixture of isomers) [Compound 2-19, 9-ethyl-N-{(1S)-1-[((S and R)-3-methoxypyrrolidin-1-yl)carbonyl]propyl}-8-(2-methylpyrimidin-5-yl)-9H-purin-6-amine]	0.05
CC[C@H](Nc1ncnc2c1nc(-c1cnc(C)nc1)n2CC)C(=O)N1CCN2CCCC2C1 (mixture of isomers) [Compound 2-38, 9-ethyl-N-[(1S)-1-(S and R)-(hexahydropyrrolo[1,2-a]pyrazin-2(1H)-ylcarbonyl)propyl]-8-(2-methylpyrimidin-5-yl)-9H-purin-6-amine]	0.01
CC[C@H](Nc1ncnc2c1nc(-c1cnc(C)nc1)n2CC)C(=O)N1CCOC(C2CC2)C1 (mixture of isomers) [Compound 2-28, N-{(1S)-1-[((S and R)-2-cyclopropylmorpholin-4-yl)carbonyl]propyl}-9-ethyl-8-(2-methylpyrimidin-5-yl)-9H-purin-6-amine]	0.022
CCC(Nc1ncnc2c1nc(-c1cnn(CC)c1C)n2C)C(=O)N1CCOCC1 (single isomer, unassigned) [Compound 1-6, (R or S)-8-(1-ethyl-5-methyl-1H-pyrazol-4-yl)-9-methyl-N-[1-(morpholin-4-ylcarbonyl)propyl]-9H-purin-6-amine]	0.0052
CCC(Nc1ncnc2c1nc(-c1cnn(CC)c1C)n2C)C(=O)N1C[C@@H](C)O[C@@H](C)C1 (mixture of isomers) [Compound 1-4, (R and S)-N-(1-{[(cis)-2,6-dimethylmorpholin-4-yl]carbonyl}propyl)-8-(1-ethyl-5-methyl-1H-pyrazol-4-yl)-9-methyl-9H-purin-6-amine]	0.004
CC[C@H](Nc1ncnc2c1nc(-c1cnc(C)nc1)n2CC)C(=O)N1CCOCC1C1CC1 (mixture of isomers) [Compound 2-30, N-{(1S)-1-[((S and R)-3-cyclopropylmorpholin-4-yl)carbonyl]propyl}-9-ethyl-8-(2-methylpyrimidin-5-yl)-9H-purin-6-amine]	0.019
CC[C@H](Nc1ncnc2c1nc(-c1cnc(C)nc1)n2CC)C(=O)N1CCCC1C1CC1 (mixture of isomers) [Compound 2-22, N-{(1S)-1-[((R and S)-2-cyclopropylpyrrolidin-1-yl)carbonyl]propyl}-9-ethyl-8-(2-methylpyrimidin-5-yl)-9H-purin-6-amine]	0.017
